Data on one compound can be found in US5192525A (Board of Regents, The University of Texas System, priority 1991, dated 1993).

Sequences of proteins named here, by UniProt entry; tags and fusion partners are left off.
UniProt Q29040, whole entry: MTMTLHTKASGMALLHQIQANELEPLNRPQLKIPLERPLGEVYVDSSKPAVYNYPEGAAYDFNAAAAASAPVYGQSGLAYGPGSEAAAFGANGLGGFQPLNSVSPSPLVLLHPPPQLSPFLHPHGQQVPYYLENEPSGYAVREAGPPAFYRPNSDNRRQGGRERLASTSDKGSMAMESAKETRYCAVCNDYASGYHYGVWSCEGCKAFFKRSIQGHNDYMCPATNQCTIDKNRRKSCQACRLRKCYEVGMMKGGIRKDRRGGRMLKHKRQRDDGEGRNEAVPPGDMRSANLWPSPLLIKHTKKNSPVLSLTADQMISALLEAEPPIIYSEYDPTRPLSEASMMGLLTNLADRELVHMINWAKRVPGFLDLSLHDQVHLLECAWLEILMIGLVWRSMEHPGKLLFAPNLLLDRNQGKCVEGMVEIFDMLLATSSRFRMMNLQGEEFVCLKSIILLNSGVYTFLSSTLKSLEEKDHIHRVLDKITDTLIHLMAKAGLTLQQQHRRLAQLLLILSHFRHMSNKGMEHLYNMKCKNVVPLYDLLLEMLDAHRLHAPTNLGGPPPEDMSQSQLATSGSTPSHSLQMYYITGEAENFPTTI

Structures are written as SMILES.

In general, Hill coefficient refers to a measure of the steepness of the concentration-response curve.

The test addresses T1, estrogen receptor (Sus scrofa, UniProt Q29040).
T1 construct: uteri (90 gm) were obtained from immature domestic swine (15 kg); from tissue; host or cells: uterus cytosol (100,000 g supernatant, charcoal-treated) of immature domestic swine
Briefly: [3H]estradiol saturation / Scatchard analysis in pig uterus. The test is classed as binding.

For `C[C@]12CC[C@@H]3c4ccc(O)cc4CC[C@H]3[C@@H]1CC[C@@H]2O` [[^3 H]estradiol], the Hill coefficient is listed as 0.982.
